Laboratory results: PubChem BioAssay AID504441 (Broad Institute, 2011)
Only a part is listed here, and it is no random draw. Calls of active or inactive are those of the source. No stated cut-off is given here; in the data, active means inhibition above about 50%; inactive means the rest.

target: Dual specificity tyrosine-phosphorylation-regulated kinase 1A (Rattus norvegicus) (UniProt Q63470); test: rat Dyrk1A kinase inhibitors, primary screen, biochemical, single point, plate reader (AID 504441); settings: ADP-Glo luminescence, NFATc1 peptide, at 12.5 µM, stronger effect = higher value;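 further: plate controls were vehicle with enzyme for no effect and no enzyme for full effect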

SMILES	inhibition
CCOC(=O)N1CCC(Nc2ccc(C)cc2)CC1	inactive: 10.5%
N/C(=N\O)c1c(N)no[n+]1[O-]	inactive: -3.23%
O=C(OC1CN2CCC1CC2)C1c2ccccc2C=Cc2ccccc21 (stereo not drawn)	inactive: -3.22%
COc1cc(C(=O)NCC2(N3CCOCC3)CCCCC2)cc(OC)c1C	inactive: 2.11%
COc1ccc(C(=O)NCC2(N3CCOCC3)CCCCC2)cc1OC	inactive: -1.18%
CN(C)C1(CNC(=O)c2cccc(C#N)c2)CCCCC1	inactive: 2.06%
c1ccc(CN2CCC(Nc3ccccc3)CC2)cc1	inactive: -1.09%
CCCN1CCC(Nc2cc(OC)cc(OC)c2)CC1	inactive: -3.13%
Cc1cc(N(CCCl)CCCl)ccc1C=O	inactive: 4.39%
CC(C)(C)OC(=O)N1CCC(N(C(=O)c2ccccc2)c2ccc(Cl)cc2)CC1	inactive: -0.211%
Cc1ccccc1NC1(C#N)CCN(Cc2ccccc2)CC1	inactive: -2.68%
CCN1CCC(Nc2cccc(F)c2)CC1	inactive: 3.78%
O=C(NCC1(N2CCCCC2)CCCCC1)c1ccco1	inactive: 0.0147%
Cn1c(=O)[nH]cc(N(CCCl)CCCl)c1=O	inactive: 3.17%
CN(C)c1ccc(C(=O)NCC2(N3CCCCC3)CCCCC2)cc1	inactive: 0.4%
COc1cc(OC)cc(C(=O)NCC2(N3CCCCC3)CCCCC2)c1	inactive: -3.63%
Cc1ccc(C(=O)NCC2(N3CCCCC3)CCCCC2)o1	inactive: 3%
Fc1ccccc1NC1CCN(Cc2ccccc2)CC1	inactive: -7.93%
COc1cccc(C(=O)N(c2cc(C)cc(C)c2)C2CCN(C(=O)OC(C)(C)C)CC2)c1	inactive: 0.574%
COc1cc(OC)cc(C(=O)NCC2(N3CCOCC3)CCCCC2)c1	inactive: -6.85%
CCC(CO)(C(=O)OC1CN2CCC1CC2)c1ccccc1 (stereo not drawn)	inactive: 7.27%

SMILES	inhibition
CN1CCC(Nc2ccc(Cl)cc2)CC1	inactive: 1.1%
CCOc1ncccc1C(=O)NCC1(N2CCOCC2)CCCCC1	inactive: -1.14%
CC(C)(C)OC(=O)N1CCC(Nc2ccccc2)CC1	inactive: 18.1%
O=C(O)C1(Nc2ccccc2)CCN(Cc2ccccc2)CC1	inactive: -0.6%
CCCOc1ccc(C(=O)NCC2(N(C)C)CCCCC2)cc1	inactive: -1.76%
O=C(NCC1(N2CCCCC2)CCCCC1)c1ccc(Cl)nc1	inactive: -11.8%
Cc1cc(C)cc(N(C(=O)c2ccccc2)C2CCN(C(=O)OC(C)(C)C)CC2)c1	inactive: 2.79%
O=C(NCC1(N2CCOCC2)CCCCC1)c1cc2ccccc2o1	inactive: 4.38%
O=C(OC1CN2CCC1CC2)C1c2ccccc2Oc2ccccc21 (stereo not drawn)	inactive: -0.693%
N#CC1(Nc2ccccc2)CCN(Cc2ccccc2)CC1	inactive: -2.04%
O=C(NCC1(N2CCCCC2)CCCCC1)c1ccc(Cl)s1	inactive: -9.97%
CCOC(=O)N1CCC(Nc2ccc(OC)cc2)CC1	inactive: -49.7%
COc1ccc(C(=O)NCC2(N3CCCCC3)CCCCC2)cc1	inactive: -5.24%
COc1ccc(C(=O)NCC2(N3CCCCC3)CCCCC2)c(OC)c1OC	inactive: -3.46%
CC(C)(C)OC(=O)N1CCC(N(C(=O)c2ccccc2)c2ccc(F)cc2)CC1	inactive: -1.23%
O=C(NCC1(N2CCCCC2)CCCCC1)c1ccc(=O)[nH]c1	inactive: -3.38%
O=C(NCC1(N2CCCCC2)CCCCC1)c1cccs1	inactive: 14.1%
CSc1ccccc1C(=O)NCC1(N2CCCCC2)CCCCC1	inactive: -1.5%
COc1cc(C(=O)NCC2(N(C)C)CCCCC2)ccc1OC(F)F	inactive: -3.36%
O=C1CCN(Cc2ccccc2)CC1	inactive: -14.8%
CCOc1ccc(C)cc1CN(CCCl)CCCl	inactive: 5.27%

SMILES	inhibition
O=C(NCC1(N2CCCCC2)CCCCC1)c1ccc(F)cc1	inactive: -8.07%
CCCCOc1ccc(C(=O)NCC2(N3CCOCC3)CCCCC2)cc1	inactive: 13.7%
O=P1(N(CCCl)CCCl)SCCCS1	inactive: -1.54%
CCOC(=O)N1CCC(Nc2ccc(F)cc2)CC1	inactive: 0.253%
COc1ccc(NC2CCN(CCc3ccccc3)CC2)c(OC)c1	inactive: 1.52%
O=C(NCC1(N2CCCCC2)CCCCC1)c1cccc(C(F)(F)F)c1	inactive: 3%
O=C(NCC1(N2CCOCC2)CCCCC1)c1cc(=O)[nH]c2ccccc12	inactive: -13.3%
COc1cc(C(=O)NCC2(N3CCCCC3)CCCCC2)ccc1OC(F)F	inactive: 7.42%
COc1ccc(NC2CCN(C(=O)OC(C)(C)C)CC2)cc1	inactive: -1.13%
CC(C)c1ccc(C(=O)NCC2(N3CCOCC3)CCCCC2)cc1	inactive: 11.8%
CN1CCN(CCOC(=O)C(O)(c2ccccc2)c2ccccc2)CC1	inactive: -3.32%
O=C(NCC1(N2CCCCC2)CCCCC1)c1ccc(OC(F)F)cc1	inactive: 1.48%
N#CC1(Nc2ccccc2)CCN(CCc2ccccc2)CC1	inactive: -7.17%
CSc1ccc(C(=O)NCC2(N3CCOCC3)CCCCC2)cc1	inactive: 16.3%
O=C(NCC1(N2CCCCC2)CCCCC1)c1cccc([N+](=O)[O-])c1	inactive: 2.86%
O=C(NCC1(N2CCCCC2)CCCCC1)c1cncc(Br)c1	inactive: 11.5%
CN1CCC(Nc2cccc(F)c2)CC1	inactive: 0.565%
CCCOc1ccc(C(=O)NCC2(N(C)C)CCCCC2)cc1OC	inactive: -0.163%
COc1ccc(CN(CCCl)CCCl)cc1Cl	inactive: -1.54%
CN(C)c1cccc(C(=O)NCC2(N3CCCCC3)CCCCC2)c1	inactive: -5.87%
COc1cc(OC)c(C(=O)NCC2(N(C)C)CCCCC2)cc1OC	inactive: -0.21%
